The species entered for this test is Mus musculus. The following applies: C57BL/6.

With `CC1=C(C)C(=O)c2cc(C)ccc2C1=O`, the Michaelis constant (Km) (as a rule, the substrate concentration at which the rate is half of its maximum) is 40 µM.

These data come from ChEMBL document CHEMBL5126552, “Discovery of small-molecule compounds and natural products against Parkinson's disease: Pathological mechanism and structural modification” (Eur J Med Chem, 2022).
